Measurements: US7285554B2, “Pyrazole derivative” (Astellas Pharma Inc., priority 1997, dated 2007)

Tested on: IL-2 production from Jurkat cells
Test: cells
Details: Homo sapiens, read-out: IL-2 production inhibition IC50 value

Row | IC50 | Compound
1 | ≤ 1000 nM | Cc1nnsc1C(=O)Nc1ccc(-n2nc(C(F)(F)F)cc2C(F)(F)F)cc1 [A]
2 | ≤ 1000 nM | CCOC(=O)c1cnn(-c2ccc(NC(=O)C(Cl)=C(Cl)Cl)cc2)c1C(F)(F)F [D]
